Measured values as given in US10876003B2, “Class of stable heptamethine cyanine fluorophores and biomedical applications thereof” (priority 2014, dated 2020).

Experiment: Maximum absorbance wavelength in pH 7.4 phosphate-buffered saline
Format: physicochemical
Settings: 2 μM in 0.1 M PBS, pH 7.4, with 0.1% DMSO (v/v)
Protocol: Table 1 includes exemplary compounds according to formula II, in which n is 2, R^1 is —CH2—, m is 2, R^2 is methyl, R^14 to R^17 are methyl, and R^5, R^6, R^8, R^10, R^11 and R^13 are hydrogen. Other substituents are as indicated. The maximum absorbance wavelength (λmax) was measured in pH 7.4 phosphate-buffered saline.
Unless stated otherwise, reactions were conducted in oven-dried glassware under an atmosphere of nitrogen or argon using anhydrous solvents (passed through activated alumina columns) All other commercially obtained reagents were used as received. […] Flash column chromatography was performed using normal phase or reverse phase on a CombiFlash® Rf 200i (Teledyne Isco Inc.). […] Data for ^1H NMR spectra are reported as follows: chemical shift (6 ppm), multiplicity, coupling constant (Hz), and integration. ^13C NMR spectra were recorded on Varian spectrometers (at 100 or 125 MHz). Data for ^13C NMR spectra are reported in terms of chemical shift. IR spectra were recorded on a JASCO FT/IR 4100 spectrometer and are reported in terms of frequency of absorption (cm^−1). High-resolution LC/MS analyses were conducted on a Thermo-Fisher LTQ-Orbitrap-XL hybrid mass spectrometer system with an Ion MAX API electrospray ion source in positive ion mode. Separations were carried out on a narrow-bore (50×2.1 mm), Zorbax Rapid-Resolution, reversed-phase C18 (3.5 μm) column with a flow rate of 250 μL/min with a 10 min, 2-90% gradient of MeCN/H2O containing 0.1% HCOOH. […] Fluorescence traces and quantum yield measurements were recorded on a PTI QuantaMaster steady-state spectrofluorimeter operated by FelixGX 4.0.3 software, with 10 nm excitation and emission slit widths, 0.1 s integration rate, and enabled emission correction.

Row | SMILES | λmax [nm]
1 | CCCN1/C(=C/C=C2\CCCC(/C=C/C3=[N+](CCC)c4ccccc4C3(C)C)=C2N(C)CCOC(C)=O)C(C)(C)c2ccccc21 [Compound 17] | 689
2 | CCCN1/C(=C/C=C2\CCCC(/C=C/C3=[N+](CCC)c4ccccc4C3(C)C)=C2N(C)CCOC)C(C)(C)c2ccccc21 [Compound 16] | 668
3 | CCCN1/C(=C/C=C2\CCCC(/C=C/C3=[N+](CCC)c4ccccc4C3(C)C)=C2OCCN(C)C(C)=O)C(C)(C)c2ccccc21 [Compound 11] | 760
4 | CCCN1/C(=C/C=C2\CCCC(/C=C/C3=[N+](CCC)c4ccccc4C3(C)C)=C2OCC[N+](C)(C)C)C(C)(C)c2ccccc21 [Compound 12] | 768
